Values quoted from earlier work, collected in patent US5985868A, “Methods and compositions for treating androgen-dependant diseases using optically pure R-(-) casodex” (Sepracor Inc., priority 1998, dated 1999).

Assays:
[1] = system: peripheral androgen receptors

Q: Which results are given for `CC(O)(CS(=O)(=O)c1ccc(F)cc1)C(=O)Nc1ccc(C#N)c(C(F)(F)F)c1` (racemic) [racemic casodex, 4'-cyano-3-[(4-fluorophenyl)sulfonyl]-2-hydroxy-2-methyl-3'-(trifluoromethyl)propionanilide]?
A: antagonist selectivity at peripheral androgen receptors [1]: very selective antagonist; progestational activity (progestational activity): no progestational or glucocorticoid activity
